“And” between values parts separate entries of the source, which are not always exact repeats. Identical values can stand only once.
Tests used:
[1] = test system: Mus musculus; assay: Half life period after (ip) administration of 50 mg/kg in B6D2F1 mice; conditions: in vivo
[2] = test system: Mus musculus; assay: Toxicity in female B6D2F1 mice measured as thymus wt when given 25 mg/kg daily * 5 (ip); conditions: in vivo
[3] = test system: Mus musculus; assay: Toxicity in female B6D2F1 mice measured as spleen wt when given 12.5 mg/kg daily * 5 (ip); conditions: in vivo
[4] = test system: Mus musculus; assay: Toxicity to bone marrow granulocyte/macrophage progenitors per femur at a dose of 30 mg/kg (ip); conditions: in vivo
[5] = test system: Mus musculus; assay: Toxicity in female B6D2F1 mice measured as BUN when given 25 mg/kg daily * 5 (ip); conditions: in vivo
[6] = test system: Mus musculus; assay: Toxicity in female B6D2F1 mice measured as WBC count when given 25 mg/kg daily * 5 (ip); conditions: in vivo
[7] = test system: Mus musculus; assay: Toxicity in female B6D2F1 mice measured as WBC count when given 0 mg/kg daily * 5 (ip); conditions: in vivo
[8] = test system: Mus musculus; assay: Antitumor activity in MX-1 Xenograft Model at a dose of 40 mg/kg (po) measured as percent weight change on day 8
[9] = test system: Mus musculus; assay: Toxicity in female B6D2F1 mice measured as thymus wt when given 0 mg/kg daily * 5 (ip); conditions: in vivo
[10] = test system: Mus musculus; assay: Toxicity in female B6D2F1 mice measured as alkaline phosphatase when given 25 mg/kg daily * 5 (ip); conditions: in vivo
[11] = test system: Mus musculus; assay: Toxicity in female B6D2F1 mice measured as alanine aminotransferase when given 2.5 mg/kg daily * 5 (ip); conditions: in vivo
[12] = test system: Mus musculus; assay: Toxicity in female B6D2F1 mice measured as alkaline phosphatase when given 0 mg/kg daily * 5 (ip); conditions: in vivo
[13] = test system: Mus musculus; assay: Antitumor activity against B16 murine melanoma at a dose of 25 mg/kg (ip) measured as percent weight change on day 8
[14] = test system: Mus musculus; assay: Toxicity in female B6D2F1 mice measured as platelet count when given 0 mg/kg daily * 5 (ip); conditions: in vivo
[15] = test system: Mus musculus; assay: Antitumor activity against B16 murine melanoma at a dose of 12.5 mg/kg (ip) measured as 60-day survivors (% LTS)
[16] = test system: Mus musculus; assay: Antitumor activity in MX-1 Xenograft Model at a dose of 40 mg/kg (po) measured as percent growth inhibition
[17] = test system: Mus musculus; assay: Antitumor activity in MX-1 Xenograft Model at a dose of 25 mg/kg (ip) measured as number of mice with complete tumor regression
[18] = test system: Mus musculus; assay: Antitumor activity in MX-1 Xenograft Model at a dose of 40 mg/kg (po) measured as number of mice with partial tumor regression
[19] = test system: Mus musculus; assay: Toxicity in female B6D2F1 mice measured as alanine aminotransferase when given 25 mg/kg daily * 5 (ip); conditions: in vivo
[20] = test system: Mus musculus; assay: Toxicity in female B6D2F1 mice measured as BUN when given 0 mg/kg daily * 5 (ip); conditions: in vivo
[21] = test system: Mus musculus; assay: Toxicity in female B6D2F1 mice measured as platelet count when given 12.5 mg/kg daily * 5 (ip); conditions: in vivo
[22] = test system: Mus musculus; assay: Antitumor activity in MX-1 Xenograft Model at a dose of 12.5 mg/kg (ip) measured as number of mice with partial tumor regression
[23] = test system: Mus musculus; assay: Toxicity in female B6D2F1 mice measured as RBC count when given 2.5 mg/kg daily * 5 (ip); conditions: in vivo
[24] = test system: Mus musculus; assay: Antitumor activity in MX-1 Xenograft Model at a dose of 25 mg/kg (ip) measured as percent growth inhibition
[25] = test system: Mus musculus; assay: Antitumor activity against L1210 cyclophosphamide resistant murine melanoma at a dose of 12.5 mg/kg (ip) measured as percent weight change on day 8
[26] = test system: Mus musculus; assay: Antitumor activity in MX-1 Xenograft Model at a dose of 12.5 mg/kg (ip) measured as number of mice with complete tumor regression
[27] = test system: Mus musculus; assay: Toxicity in female B6D2F1 mice measured as spleen wt when given 25 mg/kg daily * 5 (ip); conditions: in vivo
[28] = test system: Mus musculus; assay: Antitumor activity in MX-1 Xenograft Model at a dose of 40 mg/kg (po) measured as number of mice with complete tumor regression
[29] = test system: Mus musculus; assay: Antitumor activity against B16 murine melanoma at a dose of 25 mg/kg (ip) measured as increased life span (% T/C)
[30] = test system: Mus musculus; assay: Toxicity in female B6D2F1 mice measured as platelet count when given 2.5 mg/kg daily * 5 (ip); conditions: in vivo
[31] = test system: Mus musculus; assay: Toxicity in female B6D2F1 mice measured as WBC count when given 12.5 mg/kg daily * 5 (ip); conditions: in vivo
[32] = test system: Mus musculus; assay: Antitumor activity in MX-1 Xenograft Model at a dose of 25 mg/kg (ip) measured as number of mice with partial tumor regression
[33] = test system: Mus musculus; assay: Toxicity in female B6D2F1 mice measured as alkaline phosphatase when given 2.5 mg/kg daily * 5 (ip); conditions: in vivo
[34] = test system: Mus musculus; assay: Toxicity in female B6D2F1 mice measured as BUN when given 12.5 mg/kg daily * 5 (ip); conditions: in vivo
[35] = test system: Mus musculus; assay: Toxicity in female B6D2F1 mice measured as RBC count when given 0 mg/kg daily * 5 (ip); conditions: in vivo
[36] = test system: Mus musculus; assay: Antitumor activity against L1210 cyclophosphamide resistant melanoma at a dose of 25 mg/kg (ip) measured as 60-day survivors (% LTS)
[37] = test system: Mus musculus; assay: Toxicity to bone marrow granulocyte/macrophage progenitors per femur at a dose of 100 mg/kg (ip); conditions: in vivo
[38] = test system: Mus musculus; assay: Toxicity in female B6D2F1 mice measured as platelet count when given 25 mg/kg daily * 5 (ip); conditions: in vivo
[39] = test system: Mus musculus; assay: Antitumor activity in MX-1 Xenograft Model at a dose of 12.5 mg/kg (ip) measured as percent growth inhibition
[40] = test system: Mus musculus; assay: Antitumor activity in MX-1 Xenograft Model at a dose of 25 mg/kg (ip) measured as percent weight change on day 8
[41] = test system: Mus musculus; assay: Toxicity in female B6D2F1 mice measured as thymus wt when given 12.5 mg/kg daily * 5 (ip); conditions: in vivo
[42] = test system: Mus musculus; assay: Toxicity to bone marrow granulocyte/macrophage progenitors per femur at a dose of 25 mg/kg (ip); conditions: in vivo
[43] = test system: Mus musculus; assay: Toxicity in female B6D2F1 mice measured as alanine aminotransferase when given 12.5 mg/kg daily * 5 (ip); conditions: in vivo
[44] = test system: Mus musculus; assay: Toxicity in female B6D2F1 mice measured as spleen wt when given 0 mg/kg daily * 5 (ip); conditions: in vivo
[45] = test system: Mus musculus; assay: Antitumor activity against L1210 wild type melanoma at a dose of 25 mg/kg (ip) measured as 60-day survivors (% LTS)
[46] = test system: Mus musculus; assay: Toxicity in female B6D2F1 mice measured as alanine aminotransferase when given 0 mg/kg daily * 5 (ip); conditions: in vivo
[47] = test system: Mus musculus; assay: Toxicity in female B6D2F1 mice measured as thymus wt when given 2.5 mg/kg daily * 5 (ip); conditions: in vivo
[48] = test system: Mus musculus; assay: Toxicity in female B6D2F1 mice measured as spleen wt when given 2.5 mg/kg daily * 5 (ip); conditions: in vivo
[49] = test system: Mus musculus; assay: Antitumor activity in MX-1 Xenograft Model at a dose of 12.5 mg/kg (ip) measured as percent weight change on day 8
[50] = test system: Mus musculus; assay: Antitumor activity against B16 murine melanoma at a dose of 25 mg/kg (ip) measured as 60-day survivors (% LTS)
[51] = test system: Mus musculus; assay: Antitumor activity against L1210 wild type murine melanoma at a dose of 12.5 mg/kg (ip) measured as increased life span (% T/C)
[52] = test system: Mus musculus; assay: Antitumor activity against B16 murine melanoma at a dose of 12.5 mg/kg (ip) measured as percent weight change on day 8
[53] = test system: Mus musculus; assay: Antitumor activity against B16 murine melanoma at a dose of 12.5 mg/kg (ip) measured as increased life span (% T/C)

SMILES: NP(=O)(OCc1ccc([N+](=O)[O-])s1)N(CCBr)CCBr (stereo not drawn)
- T1/2 [1]: 4.3 min
- Weight [2]: 7 mg
- Weight [3]: 67 mg
- Control [4]: 87%
- BUN [5]: 17 mg/dL
- WBC x10e-3 [6]: 2.1 µL⁻¹
- WBC x10e-3 [7]: 6.7 µL⁻¹ and 5.6 µL⁻¹
- Weight change [8]: 7%
- Weight [9]: 41 mg
- alkaline phosphatase activity [10]: 63 U l-1
- ALT. [11]: 34 U l-1
- alkaline phosphatase activity [12]: 143 U l-1 and 133 U l-1
- Weight change [13]: 17%
- Platelets x10e-3 [14]: 890 µL⁻¹
- LTS [15]: 30%
- growth inhibition (GI) [16]: 87%
- No. total [17]: 6
- No. partial [18]: 2
- ALT. [19]: 43 U l-1
- BUN [20]: 23.4 mg/dL and 18.4 mg/dL
- Platelets x10e-3 [21]: 1210 µL⁻¹
- No. partial [22]: 4
- RBC x 10e 3 [23]: 7.5 µL⁻¹
- growth inhibition (GI) [24]: > 99%
- Weight change [25]: 5%
- No. total [26]: 0
- Weight [27]: 23 mg
- No. total [28]: 0
- T/C [29]: 180%
- Platelets x10e-3 [30]: 737 µL⁻¹
- WBC x10e-3 [31]: 3.9 µL⁻¹
- No. partial [32]: 4
- alkaline phosphatase activity [33]: 144 U l-1
- BUN [34]: 19.2 mg/dL
- RBC x 10e 3 [35]: 10.1 µL⁻¹ and 8.6 µL⁻¹ and 9.7 µL⁻¹
- LTS [36]: 10%
- Control [37]: 45%
- Platelets x10e-3 [38]: 523 µL⁻¹
- growth inhibition (GI) [39]: 98%
- Weight change [40]: 8%
- Weight [41]: 32 mg
- Control [42]: 14%
- ALT. [43]: 27 U l-1
- Weight [44]: 64 mg
- LTS [45]: 70%
- ALT. [46]: 22 U l-1
- Weight [47]: 62 mg
- Weight [48]: 91 mg
- Weight change [49]: 3%
- LTS [50]: 20%
- T/C [51]: 139%
- Weight change [52]: 2%
- T/C [53]: 186%

Reference: ChEMBL document CHEMBL1134466 (J Med Chem, 2001)
